From ChEMBL document CHEMBL1138006, “Identification of 2,3-diaryl-pyrazolo[1,5-b]pyridazines as potent and selective cyclooxygenase-2 inhibitors” (Bioorg Med Chem Lett, 2004) come the findings set out here.

Chains of the proteins cited; added tags and fusions are not shown.
UniProt P23219, whole entry: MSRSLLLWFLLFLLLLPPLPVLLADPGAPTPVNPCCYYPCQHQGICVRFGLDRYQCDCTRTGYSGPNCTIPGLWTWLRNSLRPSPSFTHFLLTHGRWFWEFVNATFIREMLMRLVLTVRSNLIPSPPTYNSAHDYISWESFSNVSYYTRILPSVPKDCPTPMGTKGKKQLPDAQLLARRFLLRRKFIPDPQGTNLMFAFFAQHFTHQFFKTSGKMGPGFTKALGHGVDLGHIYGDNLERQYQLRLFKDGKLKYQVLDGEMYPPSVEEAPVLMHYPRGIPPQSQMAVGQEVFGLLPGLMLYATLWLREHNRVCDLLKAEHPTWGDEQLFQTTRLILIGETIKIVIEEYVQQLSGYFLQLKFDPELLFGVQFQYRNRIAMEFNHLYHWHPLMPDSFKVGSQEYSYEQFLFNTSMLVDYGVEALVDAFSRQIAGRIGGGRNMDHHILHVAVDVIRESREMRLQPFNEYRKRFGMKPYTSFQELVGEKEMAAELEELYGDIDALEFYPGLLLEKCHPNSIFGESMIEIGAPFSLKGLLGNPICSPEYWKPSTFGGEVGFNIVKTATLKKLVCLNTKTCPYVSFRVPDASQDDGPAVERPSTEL

SMILES strings stand for the structures. pIC50: −log10 of the molar value.

The target of the test is Prostaglandin G/H synthase 1 (Homo sapiens, UniProt P23219). In kind it is cell-based, COS.

In turn, `Cc1onc(-c2ccccc2)c1-c1ccc(S(N)(=O)=O)cc1` [VALDECOXIB] gave a pIC50 of under 4.00.

As usually defined, the pIC50 is the IC50 on a negative log10 scale, so that one unit is a factor of ten.
